The values below come from publication PMC11241527, “Long-Chain Alkylthio Cyclodextrin Derivatives for Modulation of Quorum-Sensing-Based Bioluminescence in Aliivibrio fischeri Model System” (International Journal of Molecular Sciences, 2024).

The nature of data set [1]: Solubility in water at 25 °C. It is filed as physicochemical. As for the experimental part:
The characteristics: abbreviations (A), the molecular weight (MW), the solubility in water at 25 °C (WS), and the degree of substitution (DS) of the tested CDs are presented in Table 4 and Table 5.

Data set [2] can be described thus: Aggregation studies by dynamic light scattering (volume particle size distribution). As to conditions: 1% aqueous solution, 25 °C. It is filed as physicochemical. As for the experimental part:
Most CDs are prone to aggregation in aqueous solution due to their numerous hydroxyl moieties.
The aggregation behavior (nanoparticle formation) was studied by photon correlation spectroscopy (dynamic light scattering) using Malvern Zetasizer Nano ZS (Malvern Instruments, Malvern, UK) equipment at 25 °C using 1% aqueous solution.

“N,N,N-Trimethylammoniopropyl-6-monodeoxy-6-monodecanethiol-α-CD [QA-6S-C10-α-CD (4)]”: the “WS, water solubility” value in data set [1] is around 10 mg/mL. Also, in data set [2], the “average size of small-sized aggregates” value turned out to be 8.2 nm and the “size of small-sized aggregates (hydrodynamic diameter)” value is 8-10 nm.
For “N,N,N-Trimethylammoniopropyl-α-CD [QA-α-CD (2), reference compound]”, in data set [1], the “WS, water solubility” value is above 500 mg/mL.
